Results published in PubChem BioAssay AID1381 (University of Pittsburgh Molecular Library Screening Center, 2008).
This is a selection; strong and weak results do not stand in their true shares. Calls of active or inactive are those of the source.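 The calls were made as follows: active = plate z-score of nuclear minus cytoplasmic receptor signal below a set negative limit, without overly bright fluorescence or cell loss (cut at about -3.5 in these data, passing the limit was not always enough); inactive = the rest, inconclusive results apart.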

Assay: inhibitors of GR-EGFP nuclear translocation, primary screen, dynein cargo transport inhibitor project, imaging, high-content, 3617.4 mouse cells (AID 1381)
Conditions: at 20 µM, stronger effect = lower value, stimulated with dexamethasone, 1 µM

SMILES | z-score
Cc1c2non([O-])c-2c(C)[n+](=O)[n+]1[O-] | active: -3.59
O=c1c2cc([N+](=O)[O-])ccc2[nH]c2c([N+](=O)[O-])cc([N+](=O)[O-])cc12 | active: -3.53
